# From US20230076527A1, “TREATMENT OF PAROXYSMAL NOCTURNAL HEMOGLOBINURIA” (Apellis Pharmaceuticals, Inc., priority 2020, published 2023)
# How the values were obtained:
# PNH patients = PNH patients receiving eculizumab treatment; cited from earlier work
# patients with PNH [1] = experiment: PEGASUS safety, 16-week randomized controlled period
# patients with PNH [2] = conditions: in vivo
# [3] = 16-week randomized, controlled treatment period
substance,measurement,setting,value
eculizumab: monoclonal anti-C5 antibody that inhibits the formation of the MAC [reference compound],patients classified as complete responders (transfusion independence and normal hemoglobin levels),PNH patients,roughly 13%
same,patients classified as partial responders (decreased transfusion needs and reduced LDH),PNH patients,53%
same,poor responders (unchanged transfusion needs and persistent symptoms),PNH patients,33%
same,Abdominal Pain (adverse event),patients with PNH [1]; 16-week randomized period,4 (10.3) n(%)
same,Any TEAE,patients with PNH [1]; 16-week randomized period,34 (87.2) n(%)
same,Back Pain (adverse event),patients with PNH [1]; 16-week randomized period,4 (10.3) n(%)
same,Discontinuations due to AE,patients with PNH [1]; 16-week randomized period,0 n(%)
same,Dizziness (adverse event),patients with PNH [1]; 16-week randomized period,4 (10.3) n(%)
same,Fatigue (adverse event),patients with PNH [1]; 16-week randomized period,6 (15.4) n(%)
same,Headache (adverse event),patients with PNH [1]; 16-week randomized period,9 (23.1) n(%)
same,Hemolysis (adverse event),patients with PNH [1]; 16-week randomized period,9 (23.1) n(%)
same,Meningitis,patients with PNH [1]; 16-week randomized period,0 n(%)
same,cases of meningitis,patients with PNH [1]; 16-week randomized period,No cases
same,deaths,patients with PNH [1]; 16-week randomized period,no deaths
same,injection site reactions,patients with PNH [1]; 16-week randomized period,1 (2.6) n(%)
same,diarrhea,patients with PNH [1]; [3],2.6%
same,injection site reactions,patients with PNH [1]; [3],2.6%
same,All Infections,patients with PNH [2],9 (23.1) n(%)
same,Sepsis,patients with PNH [2],0 n(%)
